Experiment [1] concerns the target human VDR receptor (Homo sapiens, UniProt P11473). Nature of the experiment: Transactivation potential: VDR agonist activity, HeLa cotransfection with p240Hase-CAT reporter. The settings on record: dose giving 50% of maximum activity, HeLa cells, 18 hours treatment. From the text: By way of example, the VDR agonist activity can be tested on the HeLa cell line by cotransfection of an expression vector for the human VDR receptor and of the reporter plasmid p240Hase-CAT. The agonist activity can be characterized in this cotransfection system by the determination of the dose necessary to obtain 50% of the maximum activity of the product (AC50). The detail of the protocol of this test as well as the results obtained with the compounds according to the invention are described in example 7 of the present application.
The VDR agonist activity can be tested on the HeLa cell line, by cotransfection of an expression vector of the human VDR receptor and of the p240Hase-CAT reporter plasmid which contains the region −1399 to +76 of the rat 24-hydroxylase promoter, cloned upstream of the phase coding for the chloramphenicol acetyltransferase (CAT) gene. 18 hours after cotransfection, the test product is added to the medium. After treatment for 18 hours, the measurement of the CAT activity of the cell lysates is carried out by means of an Elisa test (Enzyme Linked Immuno Sorbent Essay, test marketed by Roche Molecular Biochemicals). The agonist activity can be characterized in this cotransfection system by the determination of the dose necessary in order to obtain 50% of the maximum activity of the product (AC50).

Amino acid sequences for entries named in this document (tags omitted).
UniProt P11473, whole entry: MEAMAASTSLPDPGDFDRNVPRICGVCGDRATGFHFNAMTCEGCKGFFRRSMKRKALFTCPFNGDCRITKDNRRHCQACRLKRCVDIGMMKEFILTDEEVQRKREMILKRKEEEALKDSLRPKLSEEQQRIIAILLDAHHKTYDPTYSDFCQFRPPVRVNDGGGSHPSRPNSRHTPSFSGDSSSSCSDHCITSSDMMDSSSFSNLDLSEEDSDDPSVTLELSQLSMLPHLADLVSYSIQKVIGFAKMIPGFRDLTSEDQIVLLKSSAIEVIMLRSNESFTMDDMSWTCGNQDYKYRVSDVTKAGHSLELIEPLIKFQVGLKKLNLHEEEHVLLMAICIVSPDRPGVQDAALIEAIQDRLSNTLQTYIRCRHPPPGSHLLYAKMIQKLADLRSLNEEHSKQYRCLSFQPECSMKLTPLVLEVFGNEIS

Experiment [2] deals with normal human keratinocytes. Nature of the experiment: Inhibition of proliferation of normal human keratinocytes (BrdU incorporation). Particulars: read-out: INHIBITION OF PROLIFERATION IC50, 5 days culture. How it is done: The biological properties analogous to vitamin D can likewise be measured by the capacity of the product to inhibit the proliferation of normal human keratinocytes (NHK in culture). The product is added to NHK cultured under conditions favoring the proliferative state. The product is left in contact with the cells for five days. The number of proliferative cells is measured by incorporation of bromodeoxyuridine (BRdU) into the DNA. The protocol of this test as well as the results obtained with the compounds according to the invention are described in example 8 of the present application.
It is known that 1,25-dihydroxyvitamin D3, called calcitriol and corresponding to natural vitamin D, inhibits the proliferation of human keratinocytes in culture. The method used is the following: the normal human keratinocytes are inoculated at low density into a 24-well plate. After 4 hours, the compounds to be tested are added to the culture medium. After culturing for 5 days, the proliferation of the keratinocytes is determined by incorporation of 5-bromo-2′ deoxyuridine (BrdU) in the DNA. The quantity of BrdU incorporated is then quantified by using the Elisa test (Enzyme Linked Immuno Sorbent Essay, test marketed by Roche Molecular Biochemicals). […]

For experiment [3], the system named is HL60 promyelocytic leukemia cells. The experiment is described as follows: Induction of differentiation of HL60 cells (NBT reduction). The settings on record: read-out: Activation of Differentiation AC 50, 4 days culture, NBT-positive cells. From the text:
The biological properties analogous to vitamin D can likewise be measured by the capacity of the product to induce the differentiation of HL60 promyelocytic leukemia cells. The protocol of this test as well as the results obtained with the compounds according to the invention are described in example 9 of the present application.
Calcitriol induces the differentiation of promyelocytic leukemia cells (HL60) in monocytes/macrophages. This differentiation inductor effect is a well-characterized marker of cellular vitamin D activity. One of the most important antimicrobial products of macrophages is hydrogen peroxide, which can be analyzed experimentally by the reduction of NBT (Nitroblue Tetrazolium).
The method used is the following: The HL60 cells are inoculated into 6-well plates and then treated immediately with the compounds to be tested. After 4 days in culture, the cells are incubated with phorbol TPA ester and NBT for a short period and the differentiated cells, i.e., positive to NBT, are counted.

In turn, `CCC(O)(C#C/C=C(\C)c1cccc(OCc2ccc(CO)c(CO)c2)c1)CC` came in with an AC50 in experiment [1] of 746 nM. For the molecule `C/C(=C\C=C\C(C)(C)O)c1cccc(CCc2ccc(CO)c(CO)c2)c1`, in experiment [1], the AC50 was 319 nM. Also, in experiment [2], the IC50 was 1510 nM. In experiment [1], `CC/C(=C\C=C\C(O)(CC)CC)c1cc(OCc2ccc(CO)c(CO)c2)ccc1C` had an AC50 of 79 nM. Besides, the IC50 in experiment [2] came to 99 nM.

For `CCC(O)(/C=C/C=C(\C)c1cccc(CCc2ccc(CO)c(CO)c2)c1)CC`, the values for the AC50 in experiment [1] and in experiment [3] were 124 nM and 310 nM, respectively.
